Results: patent publication US20080004302A1, “Novel Compounds” (ASTRAZENECA AB, priority 2006, published 2008)

By UniProt entry, the sequences of proteins in these tests, tags left out. Residues count along the entry.
UniProt P08069, 31-1367: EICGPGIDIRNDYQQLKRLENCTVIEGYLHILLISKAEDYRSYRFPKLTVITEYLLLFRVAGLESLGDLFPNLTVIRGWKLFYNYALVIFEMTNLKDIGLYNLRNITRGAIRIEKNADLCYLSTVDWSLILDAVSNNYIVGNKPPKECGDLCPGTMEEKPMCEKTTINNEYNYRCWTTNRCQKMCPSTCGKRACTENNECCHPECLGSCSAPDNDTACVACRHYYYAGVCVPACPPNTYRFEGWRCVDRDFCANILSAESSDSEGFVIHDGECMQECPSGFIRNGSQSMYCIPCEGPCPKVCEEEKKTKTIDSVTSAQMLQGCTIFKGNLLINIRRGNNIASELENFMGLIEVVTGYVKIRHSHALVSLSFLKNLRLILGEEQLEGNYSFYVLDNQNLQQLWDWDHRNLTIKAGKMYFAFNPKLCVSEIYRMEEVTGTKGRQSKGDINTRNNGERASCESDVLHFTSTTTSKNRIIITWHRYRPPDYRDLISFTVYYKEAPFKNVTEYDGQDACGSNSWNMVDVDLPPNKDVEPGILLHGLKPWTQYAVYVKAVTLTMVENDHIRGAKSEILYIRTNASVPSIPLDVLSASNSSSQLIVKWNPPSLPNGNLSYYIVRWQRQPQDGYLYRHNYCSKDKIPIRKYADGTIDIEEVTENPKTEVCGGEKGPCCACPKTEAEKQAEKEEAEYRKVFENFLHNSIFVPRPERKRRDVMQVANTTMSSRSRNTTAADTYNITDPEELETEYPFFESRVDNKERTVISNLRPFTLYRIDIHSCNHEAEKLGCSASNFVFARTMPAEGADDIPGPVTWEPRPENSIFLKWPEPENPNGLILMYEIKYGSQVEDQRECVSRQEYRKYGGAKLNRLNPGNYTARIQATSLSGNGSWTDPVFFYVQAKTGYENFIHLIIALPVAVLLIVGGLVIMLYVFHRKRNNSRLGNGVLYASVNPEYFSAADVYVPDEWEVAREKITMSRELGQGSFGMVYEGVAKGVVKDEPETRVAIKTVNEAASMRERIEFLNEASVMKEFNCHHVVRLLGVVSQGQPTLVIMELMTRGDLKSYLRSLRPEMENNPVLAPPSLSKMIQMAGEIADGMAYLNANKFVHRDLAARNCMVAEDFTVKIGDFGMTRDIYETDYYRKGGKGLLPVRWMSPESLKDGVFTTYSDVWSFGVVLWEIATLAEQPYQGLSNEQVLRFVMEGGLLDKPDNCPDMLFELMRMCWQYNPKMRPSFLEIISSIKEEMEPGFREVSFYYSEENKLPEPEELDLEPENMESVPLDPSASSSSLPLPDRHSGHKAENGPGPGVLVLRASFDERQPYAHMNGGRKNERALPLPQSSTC

Target: T1, human IGF1R (Homo sapiens, UniProt P08069)
T1 construct: expressed in transfected cells; host or cells: R+ cells (R- mouse fibroblasts transfected with human IGF1R)
Test: Inhibition of insulin-like growth factor-1 receptor phosphorylation in R+ cells
Assay type: cell-based
Description: This immunofluorescence end point cell assay measures the ability of a test compound to reduce the measured levels of IGF1R phosphorylation after IGF1 stimulation in R^+ cells. […] were derived by transfection of R^− mouse fibroblast cells with human IGF1R.
(+5% CO2) incubator for 30 minutes.
Following the compound treatment, the R^+ cells were stimulated with a final concentration of 30 nM IGF1 (Gropep 1M001) for 20 minutes at 37° C. […] Plates were incubated for 1 hour at room temperature. […] Additionally, in-house antibodies raised against phospho […] were also used at a suitable titre determined for each batch.
The plates were incubated at room temperature for one hour. […]
The Green Fluorescent phospho IGF1R -associated signal in each well was measured using an Acumen Explorer HTS Reader (TTP Labtech Ltd., Cambridge). […] The instrument is a laser-scanning fluorescence microplate cytometer, which samples the well at regular intervals and uses threshold algorithms to identify all fluorescent intensities above the solution background without the need to generate and analyse an image. These fluorescent objects can be quantified and provide a measure of the phospho IGF1R levels in cells. Fluorescence dose response data obtained with each compound was exported into a suitable software package (such as Origin) to perform curve fitting analysis. […]

COCCCc1cc(Nc2ccnc(NCc3cc(C)no3)n2)n[nH]1 [Example 17, N′-[5-(3-methoxypropyl)-2H-pyrazol-3-yl]-N-[(3-methylisoxazol-5-yl)methyl]pyrimidine-2,4-diamine] gave a pIC50 of under 5.00.

pIC50: −log10 of the molar value.
